Literature values as cited in patent US6028083A, “Esters of (+)-α-(2,3-dimethoxyphenyl)-1-[2-(4-fluorophenyl) ethyl]-4-piperidinemethanol” (Hoechst Marion Roussel, Inc., priority 1997, dated 2000).

Test system: 5HT2A receptor
Settings: literature (Pranzatelli 1990; Wettstein et al. 1996); cited from earlier work

| SMILES | block of the behavioral effects of DOI |
| --- | --- |
| CC[C@@H](CO)NC(=O)[C@@H]1C=C2c3cccc4c3c(cn4C)C[C@H]2N(C)C1 [methysergide] | dose-dependently block the behavioral effects of DOI |
| CN1CCN2c3ccccc3Cc3ccccc3C2C1 (centres unmarked) [mianserin] | dose-dependently block the behavioral effects of DOI |
